{"source": "PubChem BioAssay AID1259313", "about": "(Sanford-Burnham Center for Chemical Genomics, 2017)", "note": "The list shows a part of the results, in another mix than the full data. The source made the active and inactive calls.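 How the source made its calls: active means melting temperature shift of at least 10% of the positive control shift, at one fixed dose; inactive means the rest.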"}
{"test_system": "Glutamate receptor ionotropic, NMDA 3A (GRIN3A) ligand-binding domain", "test": "binders of NR3A ligand-binding domain, primary screen, biophysical, differential scanning fluorimetry, uHTS (AID 1259313)", "settings": "NR3A LBD differential scanning fluorimetry, at 25 µM, active compounds read high, 0% = protein alone, 100% = glycine-bound protein"}
{"smiles": "CC(C)c1ccc(NC2CCN(C(=O)OC(C)(C)C)CC2)cc1", "Tm shift relative to glycine control": "inactive: 0.85%"}
{"smiles": "CN(C)c1cccc(C(=O)NCC2(N3CCCCC3)CCCCC2)c1", "Tm shift relative to glycine control": "inactive: 0.08%"}
{"smiles": "COc1ccc(CN(CCCl)CCCl)cc1Cl", "Tm shift relative to glycine control": "inactive: -1.26%"}
{"smiles": "O=C(NCC1(N2CCOCC2)CCCCC1)c1cc(F)c(F)cc1Cl", "Tm shift relative to glycine control": "inactive: 0.26%"}
{"smiles": "COc1cc(OC)c(C(=O)NCC2(N(C)C)CCCCC2)cc1OC", "Tm shift relative to glycine control": "inactive: 1.71%"}
{"smiles": "O=C(NCC1(N2CCCCC2)CCCCC1)c1cncc(Br)c1", "Tm shift relative to glycine control": "inactive: 1.88%"}
{"smiles": "CN1CCC(Nc2cccc(F)c2)CC1", "Tm shift relative to glycine control": "inactive: 0.35%"}
{"smiles": "CCCOc1ccc(C(=O)NCC2(N(C)C)CCCCC2)cc1OC", "Tm shift relative to glycine control": "inactive: 1.21%"}
{"smiles": "O=C(NCC1(N2CCCCC2)CCCCC1)c1ccc(OC(F)F)cc1", "Tm shift relative to glycine control": "inactive: -1.31%"}
{"smiles": "N#CC1(Nc2ccccc2)CCN(CCc2ccccc2)CC1", "Tm shift relative to glycine control": "inactive: 3.68%"}
{"smiles": "CCN1CCC(Nc2ccc(Cl)cc2)CC1", "Tm shift relative to glycine control": "inactive: -3%"}
{"smiles": "O=C(NCC1(N2CCCCC2)CCCCC1)c1cccc([N+](=O)[O-])c1", "Tm shift relative to glycine control": "inactive: 0.45%"}
{"smiles": "CSc1ccc(C(=O)NCC2(N3CCOCC3)CCCCC2)cc1", "Tm shift relative to glycine control": "inactive: -0.93%"}
{"smiles": "O=C(NCC1(N2CCCCC2)CCCCC1)c1cccc(C(F)(F)F)c1", "Tm shift relative to glycine control": "inactive: -0.09%"}
{"smiles": "COc1cc(C(=O)NCC2(N3CCCCC3)CCCCC2)ccc1OC(F)F", "Tm shift relative to glycine control": "inactive: -0.2%"}
{"smiles": "O=C(NCC1(N2CCOCC2)CCCCC1)c1cc(=O)[nH]c2ccccc12", "Tm shift relative to glycine control": "inactive: -14%"}
{"smiles": "CN1CCN(CCOC(=O)C(O)(c2ccccc2)c2ccccc2)CC1", "Tm shift relative to glycine control": "inactive: -2.36%"}
{"smiles": "COc1ccc(NC2CCN(C(=O)OC(C)(C)C)CC2)cc1", "Tm shift relative to glycine control": "inactive: -0.95%"}
{"smiles": "CC(C)c1ccc(C(=O)NCC2(N3CCOCC3)CCCCC2)cc1", "Tm shift relative to glycine control": "inactive: -3.9%"}
{"smiles": "O=C1CCN(Cc2ccccc2)CC1", "Tm shift relative to glycine control": "inactive: 0.8%"}
{"smiles": "CCOc1ccc(C)cc1CN(CCCl)CCCl", "Tm shift relative to glycine control": "inactive: 2.22%"}
{"smiles": "COc1ccc(NC2CCN(CCc3ccccc3)CC2)c(OC)c1", "Tm shift relative to glycine control": "inactive: -4.44%"}
{"smiles": "CCOC(=O)N1CCC(Nc2ccc(F)cc2)CC1", "Tm shift relative to glycine control": "inactive: 0.91%"}
{"smiles": "O=C(NCC1(N2CCCCC2)CCCCC1)c1ccc(F)cc1", "Tm shift relative to glycine control": "inactive: -0.09%"}
{"smiles": "O=P1(N(CCCl)CCCl)SCCCS1", "Tm shift relative to glycine control": "inactive: 0.6%"}
{"smiles": "CCCCOc1ccc(C(=O)NCC2(N3CCOCC3)CCCCC2)cc1", "Tm shift relative to glycine control": "inactive: -0.08%"}
{"smiles": "COc1cc(C(=O)NCC2(N(C)C)CCCCC2)ccc1OC(F)F", "Tm shift relative to glycine control": "inactive: -4.51%"}
{"smiles": "CCOC(=O)N1CCC(Nc2cccc(C)c2)CC1", "Tm shift relative to glycine control": "inactive: 0.2%"}
{"smiles": "COc1ccc(C(=O)NCC2(N3CCCCC3)CCCCC2)c(OC)c1OC", "Tm shift relative to glycine control": "inactive: 9.11%"}
{"smiles": "CC(C)(C)OC(=O)N1CCC(N(C(=O)c2ccccc2)c2ccc(F)cc2)CC1", "Tm shift relative to glycine control": "inactive: -0.19%"}
{"smiles": "COc1ccc(C(=O)NCC2(N3CCCCC3)CCCCC2)cc1", "Tm shift relative to glycine control": "inactive: -0.6%"}
{"smiles": "O=C(NCC1(N2CCCCC2)CCCCC1)c1cccs1", "Tm shift relative to glycine control": "inactive: 1.43%"}
{"smiles": "O=C(NCC1(N2CCCCC2)CCCCC1)c1ccc(=O)[nH]c1", "Tm shift relative to glycine control": "inactive: 2.43%"}
{"smiles": "Cc1cccc(NC2(C#N)CCN(Cc3ccccc3)CC2)c1", "Tm shift relative to glycine control": "inactive: 0.42%"}
{"smiles": "CSc1ccccc1C(=O)NCC1(N2CCCCC2)CCCCC1", "Tm shift relative to glycine control": "inactive: 1.13%"}
{"smiles": "Cc1cc(C)cc(N(C(=O)c2ccccc2)C2CCN(C(=O)OC(C)(C)C)CC2)c1", "Tm shift relative to glycine control": "inactive: -8.54%"}
{"smiles": "O=C(NCC1(N2CCCCC2)CCCCC1)c1ccc(Cl)nc1", "Tm shift relative to glycine control": "inactive: 0.64%"}
{"smiles": "O=C(NCC1(N2CCOCC2)CCCCC1)c1cc2ccccc2o1", "Tm shift relative to glycine control": "inactive: -1.49%"}
{"smiles": "COc1ccc(Cl)cc1C(=O)NCC1(N2CCOCC2)CCCCC1", "Tm shift relative to glycine control": "inactive: 2.5%"}
{"smiles": "O=C(OC1CN2CCC1CC2)C1c2ccccc2Oc2ccccc21", "note": "(stereo not given)", "Tm shift relative to glycine control": "inactive: 0.55%"}
{"smiles": "O=C(NCC1(N2CCCCC2)CCCCC1)c1ccc(Cl)s1", "Tm shift relative to glycine control": "inactive: -0.83%"}
{"smiles": "N#CC1(Nc2ccccc2)CCN(Cc2ccccc2)CC1", "Tm shift relative to glycine control": "inactive: -0.21%"}
{"smiles": "CCOC(=O)N1CCC(Nc2ccc(OC)cc2)CC1", "Tm shift relative to glycine control": "inactive: -0.68%"}
{"smiles": "CN1CCC(Nc2ccc(F)c(Cl)c2)CC1", "Tm shift relative to glycine control": "inactive: 1.55%"}
{"smiles": "CCOc1ncccc1C(=O)NCC1(N2CCOCC2)CCCCC1", "Tm shift relative to glycine control": "inactive: 0.37%"}
{"smiles": "O=C(O)C1(Nc2ccccc2)CCN(Cc2ccccc2)CC1", "Tm shift relative to glycine control": "inactive: 0%"}
{"smiles": "CC(C)(C)OC(=O)N1CCC(Nc2ccccc2)CC1", "Tm shift relative to glycine control": "inactive: -3.1%"}
{"smiles": "CCCOc1ccc(C(=O)NCC2(N(C)C)CCCCC2)cc1", "Tm shift relative to glycine control": "inactive: 6.55%"}
{"smiles": "COc1cc(OC)cc(C(=O)NCC2(N3CCOCC3)CCCCC2)c1", "Tm shift relative to glycine control": "inactive: -0.67%"}
{"smiles": "COc1cccc(C(=O)N(c2cc(C)cc(C)c2)C2CCN(C(=O)OC(C)(C)C)CC2)c1", "Tm shift relative to glycine control": "inactive: -2.51%"}
{"smiles": "CCC(CO)(C(=O)OC1CN2CCC1CC2)c1ccccc1", "note": "(stereo not given)", "Tm shift relative to glycine control": "inactive: 1.3%"}
{"smiles": "CN1CCC(Nc2ccc(Cl)cc2)CC1", "Tm shift relative to glycine control": "inactive: 1.08%"}
{"smiles": "CC(=O)N(c1ccccc1)C1CCNCC1", "Tm shift relative to glycine control": "inactive: -1.18%"}
{"smiles": "COc1cc(OC)cc(C(=O)NCC2(N3CCCCC3)CCCCC2)c1", "Tm shift relative to glycine control": "inactive: -2.8%"}
{"smiles": "Fc1ccccc1NC1CCN(Cc2ccccc2)CC1", "Tm shift relative to glycine control": "inactive: -0.09%"}
{"smiles": "Cc1ccc(C(=O)NCC2(N3CCCCC3)CCCCC2)o1", "Tm shift relative to glycine control": "inactive: -1.05%"}
{"smiles": "Cc1ccc(NC2(C#N)CCN(Cc3ccccc3)CC2)cc1", "Tm shift relative to glycine control": "inactive: 1.76%"}
{"smiles": "CCN1CCC(Nc2cccc(F)c2)CC1", "Tm shift relative to glycine control": "inactive: -1.46%"}
{"smiles": "Cc1ccccc1NC1(C#N)CCN(Cc2ccccc2)CC1", "Tm shift relative to glycine control": "inactive: 0.6%"}
{"smiles": "Cn1c(=O)[nH]cc(N(CCCl)CCCl)c1=O", "Tm shift relative to glycine control": "inactive: 1.61%"}
{"smiles": "CN(C)c1ccc(C(=O)NCC2(N3CCCCC3)CCCCC2)cc1", "Tm shift relative to glycine control": "inactive: -0.31%"}
{"smiles": "O=C(NCC1(N2CCCCC2)CCCCC1)c1ccco1", "Tm shift relative to glycine control": "inactive: -1.58%"}
{"smiles": "N#Cc1ccc(C(=O)NCC2(N3CCCCC3)CCCCC2)cc1", "Tm shift relative to glycine control": "inactive: 1.48%"}
{"smiles": "CC(C)(C)OC(=O)N1CCC(N(C(=O)c2ccccc2)c2ccc(Cl)cc2)CC1", "Tm shift relative to glycine control": "inactive: -2.63%"}
{"smiles": "CN(C)C1(CNC(=O)c2cccc(C#N)c2)CCCCC1", "Tm shift relative to glycine control": "inactive: 1.06%"}
{"smiles": "CCCN1CCC(Nc2cc(OC)cc(OC)c2)CC1", "Tm shift relative to glycine control": "inactive: 2.82%"}
{"smiles": "Cc1cc(N(CCCl)CCCl)ccc1C=O", "Tm shift relative to glycine control": "inactive: -1%"}
{"smiles": "c1ccc(CN2CCC(Nc3ccccc3)CC2)cc1", "Tm shift relative to glycine control": "inactive: 1.5%"}
{"smiles": "COc1cc(C(=O)NCC2(N3CCOCC3)CCCCC2)cc(OC)c1C", "Tm shift relative to glycine control": "inactive: 0.17%"}
{"smiles": "O=C(NCC1(N2CCOCC2)CCCCC1)c1cc(Br)ccc1Cl", "Tm shift relative to glycine control": "inactive: 1.49%"}
{"smiles": "COc1ccc(C(=O)NCC2(N3CCOCC3)CCCCC2)cc1OC", "Tm shift relative to glycine control": "inactive: -1.2%"}
{"smiles": "CCOC(=O)N1CCC(Nc2ccc(C)cc2)CC1", "Tm shift relative to glycine control": "inactive: 1.55%"}
{"smiles": "N/C(=N\\O)c1c(N)no[n+]1[O-]", "Tm shift relative to glycine control": "inactive: -0.09%"}
{"smiles": "O=C(OC1CN2CCC1CC2)C1c2ccccc2C=Cc2ccccc21", "note": "(stereo not given)", "Tm shift relative to glycine control": "inactive: -0.88%"}
{"smiles": "CCc1cc(C(=O)NCC2(N3CCCCC3)CCCCC2)sc1C", "Tm shift relative to glycine control": "inactive: -0.42%"}
